Data on one molecule can be found in ChEMBL document CHEMBL1137202, “Synthesis and biological activity of new potential agonists for the human adenosine A2A receptor” (J Med Chem, 2004).

Amino acid sequences for entries named in this document (tags omitted).
UniProt P30542, whole entry: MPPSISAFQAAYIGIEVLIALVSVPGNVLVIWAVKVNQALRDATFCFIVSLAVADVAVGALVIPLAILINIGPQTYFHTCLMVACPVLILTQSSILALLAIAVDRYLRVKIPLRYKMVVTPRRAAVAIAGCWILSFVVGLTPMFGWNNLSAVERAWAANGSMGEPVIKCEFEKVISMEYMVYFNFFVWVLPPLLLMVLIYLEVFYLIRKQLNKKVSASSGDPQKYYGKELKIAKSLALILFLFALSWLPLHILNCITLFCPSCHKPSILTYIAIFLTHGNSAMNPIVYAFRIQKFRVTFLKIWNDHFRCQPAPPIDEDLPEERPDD

This experiment deals with Adenosine receptor A1 (Homo sapiens, UniProt P30542). Description: Inhibition of [3H]DPCPX binding to human adenosine A1 receptor expressed in CHO cells. The class given is cell-based.

Turning to `CCn1nnc([C@H]2O[C@@H](n3cnc4c(N)nc(N[C@H](CO)Cc5ccc(O)cc5)nc43)[C@H](O)[C@@H]2O)n1`, the affinity, expressed as Ki, was 600 nM.

A word on the Ki: it is a dissociation constant, usually derived from enzyme kinetics or from competition with a known ligand. A low value points to tighter binding.
